The values that follow are results of earlier work, collected in publication PMC9016704, “Dichlorophenylpyridine-Based Molecules Inhibit Furin through an Induced-Fit Mechanism” (ACS Chemical Biology, 2022).

In this series the test system is DPP-4. Further details: method as in PMID 27438064. The conditions noted are these: on-rate to DPP-4; cited from earlier work.

Turning to `N#C[C@@H]1CCCN1C(=O)CNC12CC3CC(CC(O)(C3)C1)C2` [vildagliptin], the on-rate is on record as 7.1 × 10^4 M^–1 s^–1.
